Read-outs that look alike come from different tables or passages of the source.
Details: Sheep 412, nasal drops without adjuvant

CNC[C@H](O)c1ccc(O)c(O)c1 [epinephrine]
Epinephrine (0 min): 33 pg/mL | Epinephrine (10 min): 134 pg/mL | Epinephrine (15 min): 65 pg/mL | Epinephrine (30 min): 78 pg/mL | Epinephrine (+5 min): 86 pg/mL

— patent US4746508A, “Drug administration” (Beth Israel Hospital Assn., priority 1984, dated 1988)
